Values quoted from earlier work as cited in paper PMC3170638.

Amino acid sequences for entries named in this document (tags omitted). Residues count along the entry.
UniProt P35222, 2-781: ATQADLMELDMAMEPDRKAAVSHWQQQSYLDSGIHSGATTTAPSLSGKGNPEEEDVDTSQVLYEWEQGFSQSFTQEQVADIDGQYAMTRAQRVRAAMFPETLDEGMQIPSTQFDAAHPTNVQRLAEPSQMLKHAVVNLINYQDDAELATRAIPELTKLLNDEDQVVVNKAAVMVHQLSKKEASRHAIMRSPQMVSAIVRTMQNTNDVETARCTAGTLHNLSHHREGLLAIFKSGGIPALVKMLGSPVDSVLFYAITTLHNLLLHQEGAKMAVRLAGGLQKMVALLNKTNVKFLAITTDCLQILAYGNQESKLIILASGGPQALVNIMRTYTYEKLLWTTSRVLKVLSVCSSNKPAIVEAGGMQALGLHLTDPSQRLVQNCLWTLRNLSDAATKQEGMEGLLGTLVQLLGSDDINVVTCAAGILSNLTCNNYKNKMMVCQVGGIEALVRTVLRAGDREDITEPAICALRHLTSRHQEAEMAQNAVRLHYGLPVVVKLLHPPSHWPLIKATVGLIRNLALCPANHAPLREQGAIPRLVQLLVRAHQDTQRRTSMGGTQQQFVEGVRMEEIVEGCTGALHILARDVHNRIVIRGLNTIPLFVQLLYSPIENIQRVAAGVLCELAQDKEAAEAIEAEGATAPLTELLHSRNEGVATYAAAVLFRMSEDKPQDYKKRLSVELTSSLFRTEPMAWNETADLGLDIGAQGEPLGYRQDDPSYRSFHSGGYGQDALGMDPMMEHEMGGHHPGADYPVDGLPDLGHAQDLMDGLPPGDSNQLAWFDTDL
UniProt P25054, 1484-1528: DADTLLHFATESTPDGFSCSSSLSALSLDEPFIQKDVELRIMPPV

Target: β-catenin (Homo sapiens) (UniProt P35222)

- Kd: 1.5 nM
Substance: APC third 20aa repeat (from UniProt P25054)
